# Reference: published antibiotic growth screens (doi:10.1038/s41589-023-01349-8)
# The other results are listed elsewhere or left out.
# Tested on: A. baumannii ATCC 17978
# Experiment: relative growth (fraction of control); higher = less inhibition
# Conditions: 50 µM
row,Structure (SMILES),relative growth
1,CC(=O)O[C@H]1CC[C@]2(C)C3CC[C@]4(C)C(C(C)=O)=CC[C@H]4C3CC[C@H]2C1 (stereo partly drawn) [3-beta-ACETOXYALLOPREG-16-EN-20-ONE],1.22
2,CC[C@H](C)[C@H](N)C(=O)O,1.04
3,CC(C)COC(=O)CNc1n[nH]c(=O)[nH]c1=O,1.12
4,Cc1noc(C)c1NC(=O)N[C@H]1C=C[C@@H](CC(=O)NCCCN(C)C)O[C@H]1CO,0.968
5,C[N+](C)(C)CCCCNC(=O)[C@H]1C[C@H]2C(=O)N[C@@H](Cc3ccccc3)C(=O)N2[C@H]1c1cccc(OCCO)c1,0.918
6,C[C@@](Cc1ccc(O)c(O)c1)(NN)C(=O)O,1.08
7,O=C1N[C@@H](Cc2c[nH]c3ccccc23)COC(=O)[C@H](Cc2ccc(F)cc2)CCC=CC[C@@H]1CC(=O)N(CCO)Cc1ccccc1,1.11
8,CCOc1nc2cccc(C(=O)O)c2n1Cc1ccc(-c2ccccc2-c2nnn[nH]2)cc1,0.868
9,Cc1c(-c2ccccc2)n(C[C@@H](O)CN)c2ccccc12,0.765
10,Cc1ccnc(NC(=O)Cn2cnc3c2c(=O)n(C)c(=O)n3C)n1,0.946
11,CNC(=O)CN1C(=O)[C@@H]2[C@@H](C1=O)[C@@H]1C=C[C@@H]2C1,0.912
12,CCN(CC)CCNc1nc(=O)[nH]nc1C,1.02
13,O=C(O)[C@@H](S)[C@@H](S)C(=O)O,0.579
14,O=c1[nH]cnc2nc[nH]c12,0.924
15,Nc1ncnc2c1ncn2[C@@H]1O[C@H](CO)[C@@H](O)[C@@H]1O,1.1
16,COc1ccc(OCCC(=O)NN)cc1,1.01
17,C=CC[C@@H](CC(=O)N[C@H](CO)Cc1ccccc1)C(=O)N[C@H](C)COC(=O)[C@H](CC=C)CC(=O)OC(C)(C)C,1.01
18,NNc1ccc2c(N)[nH]nc2c1,0.93
19,CCc1nnc(SCC(=O)OC)[nH]1,1
20,NC(CO)(CO)CO.O=C(c1ccccc1)c1ccc2n1CCC2C(=O)O (centres undefined),1.07
21,CNCCC(Oc1ccc(C(F)(F)F)cc1)c1ccccc1.Cl (centres undefined),1.11
22,C=CC[C@H](Nc1ccccc1C)c1ccc(Cl)cc1,1.11
23,CC(=O)N(O)CCCCCNC(=O)CCC(=O)N(O)CCCCCNC(=O)CCC(=O)N(O)CCCCCN.CS(=O)(=O)O,0.983
24,C[C@H]1CN([C@@H](C)CO)S(=O)(=O)c2ccc(C3=CCCC3)cc2O[C@@H]1CN(C)S(=O)(=O)c1cn(C)cn1,0.989
25,C[C@@H]1CN([C@H](C)CO)C(=O)c2cc(C#Cc3ccccn3)cnc2O[C@H]1CN(C)C(=O)c1cnccn1,1.05
26,CC(C)(C)OC(=O)N1CC(=O)C1,1.04
27,O=S(=O)(OC[C@H]1O[C@@](COS(=O)(=O)[O][Al]([OH])[OH])(O[C@H]2O[C@H](COS(=O)(=O)[O][Al]([OH])[OH])[C@@H](OS(=O)(=O)[O][Al]([OH])[OH])[C@H](OS(=O)(=O)[O][Al]([OH])[OH])[C@H]2OS(=O)(=O)[O][Al]([OH])[OH])[C@@H](OS(=O)(=O)[O][Al]([OH])[OH])[C@@H]1OS(=O)(=O)[O][Al]([OH])[OH])[O][Al]([OH])[OH].[OH][Al]([OH])[OH].[OH][Al]([OH])[OH].[OH][Al]([OH])[OH].[OH][Al]([OH])[OH].[OH][Al]([OH])[OH].[OH][Al]([OH])[OH].[OH][Al]([OH])[OH].[OH][Al]([OH])[OH],0.903

row,Structure (SMILES),relative growth
1,COC(=O)[C@@H]1[C@@H](c2ccc(OC)cc2)[C@H](C(=O)OC)S(=O)(=O)CS1(=O)=O,1.09
2,C(=C\N1CCN(C(c2ccccc2)c2ccccc2)CC1)/Cc1ccccc1,0.904
3,O=C(N[C@@H]1CC=CC[C@H](CC(=O)N(CCO)Cc2ccccc2)C(=O)N[C@@H](Cc2ccccc2)COC1=O)OCC1c2ccccc2-c2ccccc21,1.09
4,O=C(C[C@@H]1C=C[C@@H](NC(=O)C2CC2)[C@H](CO)O1)NCCCN1CCOCC1,1.14
5,C[C@@H]1C(=O)O[C@H]2CC34[C@H]5CC(C(C)(C)C)C36[C@@H](OC(=O)[C@@H]6O)OC4(C(=O)O5)[C@]21O (some centres undefined),0.924
6,CCC1(c2ccccc2)C(=O)NCNC1=O,1.23
7,O=C(O)CCCCCCCCCCCCC1C=CCC1 (centres undefined),1.35
8,Cc1noc(C)c1NC(=O)N(C)C[C@@H]1Oc2cc(C#CCN(C)C)ccc2S(=O)(=O)N([C@@H](C)CO)C[C@@H]1C,1.07
9,O=C(C[C@H]1C=C[C@H](NC(=O)CN2CCOCC2)[C@H](CO)O1)NCCc1ccncc1,1.15
10,C[C@@H]1CN([C@H](C)CO)S(=O)(=O)c2ccc(Br)cc2O[C@H]1CN(C)S(=O)(=O)c1ccccc1,1.07
11,CNC(=O)c1ccc(OC(C)=O)cc1,1.04
12,C[C@@H]1CN([C@@H](C)CO)S(=O)(=O)c2ccc(C#CC3CCCC3)cc2O[C@H]1CN(C)Cc1cncnc1,1.01
13,O=c1[nH]nc(N2CCOCC2)c(=O)[nH]1,0.895
14,COc1cc(/C=C/C(=O)/C=C(O)/C=C/c2ccc(O)c(OC)c2)ccc1O,0.926
15,COc1cc2c(cc1OC)CN(C(=O)[C@@H]1[C@H]3C(=O)O[C@H](c4ccccc4)[C@H](c4ccccc4)N3[C@H](c3ccc(O)cc3)[C@@]13C(=O)Nc1ccccc13)CC2,0.916
16,O=c1[nH]c(=O)n(C2C[C@@H](O)[C@@H](CO)O2)cc1F (some centres undefined),1.16
17,O=S1(=O)CC[C@H](S(=O)(=O)[C@H]2CCS(=O)(=O)C2)C1,1.1
18,COCC#Cc1ccc2c(c1)O[C@@H](CN(C)S(=O)(=O)c1ccc(F)cc1)[C@H](C)CN([C@H](C)CO)S2(=O)=O,0.878
19,c1ccc2c(CSc3nc4ccccc4o3)cccc2c1,1.09
20,CO[C@@H]1CN(C)C(=O)c2cc(NS(=O)(=O)c3ccccc3)ccc2OC[C@H](C)N(C(=O)NC(C)C)C[C@@H]1C,0.996
21,O=C1CC[C@@H](C(=O)N2CSC[C@H]2C(=O)O)N1,0.937
22,Oc1c(Cl)cc(Cl)c2cccnc12,0.571
23,c1ccc(-c2ccc(C(c3ccccc3)n3ccnc3)cc2)cc1 (centres undefined),1.14
24,COCC#Cc1ccc2c(c1)O[C@@H](CN(C)Cc1ccccc1F)[C@@H](C)CN([C@H](C)CO)S2(=O)=O,0.745
25,O=C(C[C@@H]1C=C[C@@H](NC(=O)c2cccnc2)[C@@H](CO)O1)NCc1ccncn1,0.893
26,O=C(C[C@H]1CC[C@@H]2[C@H](COC[C@@H](O)CN2Cc2cc(F)ccc2F)O1)N[C@H]1CCN(Cc2ccccc2)C1,0.977
27,CCCC#Cc1ccc2c(c1)O[C@H](CN(C)S(=O)(=O)c1cccc(OC)c1)[C@@H](C)CN([C@H](C)CO)S2(=O)=O,1.37
